# Membrane permeability of cyclic peptides

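The data file gives no further conditions (lipid, pH, time, direction or concentration), and values from different papers need not be comparable. Other peptides of the study may be missing here. Entries at the database's floor value (log10 P of -10) are not listed.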

PAMPA measures passive passage through an artificial lipid membrane.
Caco-2 values are permeabilities across monolayers of Caco-2 human intestinal cells.
Permeability is given as log10 of P in cm/s; higher (less negative) is more permeable.
"n/a" marks a cell with nothing listed here.

SMILES	PAMPA (log10 cm/s)	Caco-2 (log10 cm/s)
CSCC[C@@H]1NC(=O)[C@H]2CCCN2C(=O)[C@H](C(C)C)NC(=O)[C@@H](CC(C)C)N(C)C(=O)[C@H](Cc2ccccc2)NC(=O)[C@H](CC(C)C)NC(=O)[C@@H](CC(C)C)N(C)C(=O)[C@@H]2CCCN2C(=O)[C@@H](CC(C)C)NC1=O	-6.62	n/a
CC(C)C[C@H]1C(=O)N2CCC[C@@H]2C(=O)N[C@@H](Cc2ccccc2)C(=O)N2CCC[C@H]2C(=O)N[C@H](C(C)C)C(=O)N[C@H](Cc2ccccc2)C(=O)N1C	-5.22	n/a
CC(C)C[C@H]1NC(=O)[C@@H]2CCCN2C(=O)[C@H]2CCCN2C(=O)[C@H](C(C)C)NC(=O)[C@@H](CC(C)C)NC(=O)[C@@H]2CCCN2C(=O)[C@H]2CCCN2C(=O)[C@H](C(C)C)NC1=O	-6.74	n/a
CC[C@@H](C)[C@H]1NC(=O)[C@H](CC(C)C)NC(=O)[C@@H](CC(C)C)NC(=O)[C@H](C(C)C)NC(=O)[C@@H](Cc2ccccc2)N(C)C(=O)[C@@H]2CCCN2C(=O)[C@@H](CC(C)C)NC(=O)[C@H](CC(C)C)NC(=O)[C@H]2CCCN2C1=O	n/a	-5.46
CC(C)[C@@H]1C(=O)N[C@@H](Cc2ccccc2)C(=O)N2CCC[C@H]2C(=O)N(C)[C@H](Cc2ccccc2)C(=O)N[C@H](C)C(=O)N2CCC[C@H]2C(=O)N1C	-5.58	n/a
CSCC[C@@H]1NC(=O)[C@@H]2CCCN2C(=O)[C@@H](C(C)C)NC(=O)[C@@H](C)N(C)C(=O)[C@@H](CC(C)C)NC(=O)[C@@H](CC(C)C)NC(=O)[C@@H]2CCCN2C(=O)[C@H]2CCCN2C1=O	-6.44	n/a
CC(C)C[C@H]1NC(=O)[C@H]2CCCN2C(=O)[C@@H]2CCCN2C(=O)[C@@H](Cc2ccccc2)NC(=O)[C@@H](C(C)C)NC(=O)[C@H](CC(C)C)N(C)C(=O)[C@@H](Cc2ccccc2)NC1=O	-5.06	n/a
CSCC[C@@H]1NC(=O)[C@H](CC(C)C)NC(=O)[C@@H]2CCCN2C(=O)[C@H]2CCCN2C(=O)[C@@H](C)NC(=O)[C@H]2CCCN2C(=O)[C@@H](CC(C)C)NC(=O)[C@@H](C)N(C)C(=O)[C@H](CC(C)C)N(C)C(=O)[C@@H](C)N(C)C1=O	-6.15	n/a
CC[C@@H](C)[C@H]1NC(=O)[C@H](CC(C)C)N(C)C(=O)[C@H]2CCCN2C(=O)[C@H](CC(C)C)NC(=O)[C@H](Cc2ccccc2)N(C)C(=O)CN(C)C(=O)[C@@H](C(C)C)NC(=O)[C@H](C)NC(=O)[C@H]2CCCN2C(=O)[C@@H]2CCCN2C1=O	-6.46	n/a
CSCC[C@@H]1NC(=O)[C@H](C(C)C)NC(=O)[C@H]2CCCN2C(=O)[C@@H]2CCCN2C(=O)[C@H](C)NC(=O)[C@@H](C)N(C)C(=O)[C@@H](CC(C)C)N(C)C(=O)[C@@H](C(C)C)NC(=O)[C@@H]2CCCN2C1=O	-6.53	n/a
CSCC[C@@H]1NC(=O)[C@H]2CCCN2C(=O)[C@@H]2CCCN2C(=O)[C@@H](C)NC(=O)[C@H]2CCCN2C(=O)[C@@H](C(C)C)NC(=O)[C@H](C(C)C)NC(=O)[C@@H](Cc2ccccc2)N(C)C(=O)[C@H](C)N(C)C1=O	-7.16	n/a

Extract of 2 entries:

SMILES	PAMPA (log10 cm/s)	Caco-2 (log10 cm/s)
CSCC[C@@H]1NC(=O)[C@H]2CCCN2C(=O)[C@H](C(C)C)NC(=O)[C@@H](CC(C)C)N(C)C(=O)[C@H](Cc2ccccc2)NC(=O)[C@H](CC(C)C)NC(=O)[C@@H](CC(C)C)N(C)C(=O)[C@@H]2CCCN2C(=O)[C@@H](CC(C)C)NC1=O	-6.62	n/a
CSCC[C@@H]1NC(=O)[C@H]2CCCN2C(=O)[C@@H]2CCCN2C(=O)[C@@H](C)NC(=O)[C@H]2CCCN2C(=O)[C@@H](C(C)C)NC(=O)[C@H](C(C)C)NC(=O)[C@@H](Cc2ccccc2)N(C)C(=O)[C@H](C)N(C)C1=O	-7.16	n/a

Data: CycPeptMPDB; original report Bhardwaj et al. 2022, doi:10.1016/j.cell.2022.07.019.